Only some compounds are listed: those with a hit (about 0.46% of all), similar ones and a draw of the others.
HCMV UL50-53 inh – inhibitors of HCMV UL50-UL53 interaction, biochemical, HTRF; HCMV UL50-UL53 nuclear egress complex (human cytomegalovirus); normalized percent inhibition; inhibition, % (no concentration beside the values); hit rate 0.15% among 190,000; AID 1918969, 2023; in the data active = inhibition above about 27%, passing the limit was not always enough
GIV-Gai inh – inhibitors of GIV GBA-motif binding to rat Galpha-i3. P08753. Galpha-i3/FITC-GIV peptide fluorescence polarization, 90 min; hits give low values; scaled: aluminum fluoride 0%, vehicle 100%. percent of control (FP), % (no concentration beside the values). 210,000 compounds, 0.42% hits;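 active = replicate mean at 85% of control or lower, very high polarization wells dropped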;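 also: wells of about 15 µL received 100 nL stock; the first replicate is given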
GIV Gai FP conf – inhibitors of GIV peptide binding to Galpha-i3, confirmation, biochemical, fluorescence polarization, FITC-GIV peptide, rat Galphai3 | shares compounds with GIV-Gai inh | fluorescence polarization, mP at 100 µM | AID 1259350, 2017 | hit rate 38% among 580 | stronger effect = lower value;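 active = inhibition score of 15 or more, meaning 100 minus mean polarization as percent of control over three replicates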
GIV-Gai AS conf – inhibitors of GIV binding to Galpha-i3, confirmation, orthogonal assay for GIV-Galpha-i inhibitor project, biochemical, AlphaScreen, His-GIV, GST-Galphai3 | AlphaScreen counts at 100 µM | hit rate 39% among 580 | purified proteins, 90 min; stronger effect = lower value | shares compounds with GIV-Gai inh;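 active = inhibition score at or above a set limit, where the score is 100 minus the three-replicate mean percent of control signal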
Numbers without * were called inactive; x = no result; ! = not active in a repeat.

Assay codes: A = HCMV UL50-53 inh; B = GIV-Gai inh; C = GIV Gai FP conf; D = GIV-Gai AS conf
> Cc1cc(C=Nc2ccc(O)c(C(=O)O)c2)c(C)n1-c1ccc(N(C)C)cc1
  A: -12	B: x	C: x	D: x

> Cc1[nH][nH]c(=O)c1C=Nc1ccc(O)c(C(=O)O)c1
  A: 4	B: 88	C: 63	D: 6341*

> CC1(C)C=C2C(=NN(c3ccccc3)C(N)=C2C#N)CO1
  A: -40	B: 83*	C: 66	D: 39806

> CCC1(C)Cc2c(C#N)c(N)n(-c3ccccc3)c(=O)c2CO1 (centres undefined)
  A: -12	B: x	C: x	D: x

> O=C(CCCc1nc(-c2ccccc2)no1)Nc1nncs1
  A: -17	B: 94	C: x	D: x

> COc1ccc2c(c1)c(/C=C/c1nc3ccccc3c(=O)n1-c1cccc(C)c1)c(C)n2C
  A: -10	B: 66*	C: 72	D: 43303

> COc1ccc2c(c1)c(/C=C/c1nc3ccccc3c(=O)n1-c1ccccc1)c(C)n2C
  A: -3	B: 107	C: x	D: x

> O=C1Nc2ccccc2N(O)N1c1ccc(O)cc1
  A: -4	B: 103	C: x	D: x

> CCS(=O)(=O)c1ccc(-c2cccc(NS(=O)(=O)c3ccc(C)cc3)c2)nn1
  A: -47	B: 101	C: x	D: x

> COc1cc(/C=C2/C(=O)N(c3ccccc3)N=C2C)ccc1OS(=O)(=O)c1ccccc1
  A: 42*	B: 81*	C: 60*	D: 21149*

> COc1cc(/C=C2\C(=O)N(c3ccc(S(N)(=O)=O)cc3)N=C2C)ccc1OCc1ccccc1
  A: x	B: 100	C: x	D: x

> C=CCOc1ccc(C(=O)O)cc1OC
  A: -8	B: 104	C: x	D: x

> Cc1ccccc1C(=O)Nc1scc(CC(C)C)c1C(=O)O
  A: -25	B: x	C: x	D: x

> O=C(O)c1cc2c3c(c1)C1C=CCC1C(c1cccc([N+](=O)[O-])c1)N3CC1CC=CC21 (centres undefined)
  A: -7	B: 101	C: x	D: x

> O=C(O)c1cc2c3c(c1)C1C=CCC1C(c1ccccc1F)N3CC1CC=CC21 (centres undefined)
  A: -19	B: 74*	C: 21*	D: 3685*

> O=C(O)c1cc2c3c(c1)C1C=CCC1C(c1ccccc1)N3CC1CC=CC21 (centres undefined)
  A: 9	B: 81*	C: 47*	D: 7304*

> O=C(O)c1cc2c3c(c1)C1C=CCC1C(c1ccc(F)cc1)N3CC1CC=CC21 (centres undefined)
  A: 5	B: 99	C: x	D: x

> CCc1nc2oc(C(=O)c3ccc(Cl)cc3)c(N)c2c2c1COC(C)(C)C2
  A: -27	B: 80*	C: 77	D: 46961

> CCc1nc2oc(C(=O)c3ccccc3)c(N)c2c2c1COC(C)(C)C2
  A: x	B: 100	C: x	D: x

> CCc1ccc(NS(=O)(=O)c2ccc3c(c2)NC(=O)CS3)cc1
  A: -15	B: 103	C: x	D: x

> O=C(NCCCN1CCOCC1)C1CCCN(c2ccnc(-c3ccc(F)cc3)n2)C1 (centres undefined)
  A: -21	B: 104	C: x	D: x

> COc1cccc(-c2nc3c4ccccc4ncn3n2)c1
  A: -9	B: 78*	C: 66	D: 41785

> COc1ccccc1-c1nc2c3ccccc3ncn2n1
  A: -16	B: 113	C: x	D: x

> CCn1c(CN2CCOCC2)nc2ccccc21
  A: 34	B: 104	C: x	D: x

> Cc1sc2nc(/C=C/c3ccco3)oc(=O)c2c1C
  A: -9	B: 79*	C: 60	D: 46890

> Cc1sc2nc(-c3cccs3)oc(=O)c2c1C
  A: 0	B: x	C: x	D: x

> CCOC(=O)C1=C(CSc2nc(C)cc(C)c2C#N)OC(N)=C(C#N)C1c1ccc(OC)c(Br)c1 (centres undefined)
  A: x	B: 115	C: x	D: x

> CCn1nc(Nc2ccc(C)cc2)c(Cl)c1Nc1ccc(C)cc1
  A: -6	B: 107	C: x	D: x

> CC(=O)N/N=C/c1ccccc1
  A: -14	B: 101	C: x	D: x

> CC(=O)N/N=C/c1cc(C(C)C)cc(/C=N/NC(C)=O)c1O
  A: -85	B: 81*	C: 68	D: 27039

> C=CCN1C(=O)/C(=C2/Sc3ccccc3N2CC)SC1=S
  A: x	B: 77*	C: 72	D: 3469*

> C=CCN1C(=O)/C(=C2/Sc3ccc(Cl)cc3N2CC)SC1=S
  A: x	B: 111	C: x	D: x

> Clc1ccc(SCCc2nc3ccccc3o2)cc1
  A: x	B: 99	C: x	D: x

> O=C(c1ccc2snnc2c1)N(CCO)c1ccccc1
  A: 0	B: 109	C: x	D: x

> O=C1CN(c2ccccc2)C(=O)N1
  A: x	B: 100	C: x	D: x

> Nc1c2c(nn1-c1ccccc1)CC(=O)NC2=O
  A: 71*	B: 60*	C: 47*	D: 31739*

> O=c1[nH]c2nonc2nc1/C=C(\O)c1ccccc1
  A: -80	B: 101	C: x	D: x

> NC(=O)NC(=O)c1nc2nonc2[nH]c1=O
  A: 3	B: 44*	C: 42*	D: 23047

> Cc1ccc2snc(C(=O)N3CCN(C(=O)c4cc5cc(Cl)ccc5[nH]4)CC3)c2c1
  A: -35	B: 107	C: x	D: x

> O=C(O)c1ccc(-n2ncc(Cl)c(Cl)c2=O)cc1
  A: -19	B: 78*!	C: 62	D: 39055

> CC(=O)Nc1cnn(-c2ccccc2)c(=O)c1Cl
  A: -57	B: 104	C: x	D: x

Complete entries, looked up by structure. Order of screens: HCMV UL50-53 inh	GIV-Gai inh	GIV Gai FP conf	GIV-Gai AS conf
`CC(=O)Nc1cnn(-c2ccccc2)c(=O)c1Cl` is listed with -57	104	x	x
`Nc1c2c(nn1-c1ccccc1)CC(=O)NC2=O` is listed with 71*	60*	47*	31739*
`NC(=O)NC(=O)c1nc2nonc2[nH]c1=O` is listed with 3	44*	42*	23047
